Assay results taken from patent publication US12138336B2, “Personal care composition comprising water insoluble solid organic compound” (The Procter & Gamble Company, priority 2018, dated 2024).

Assay: Water solubility at 25° C.
Format: physicochemical
Details: first liquid oily compounds

CC1COCc2cc3c(cc21)C(C)(C)C(C)C3(C)C (stereo not shown) [Galoxolide]
Solubility in H2O: 0.294 µg/mL (≈ 1.14 µM)

Converted amounts (≈) assume the structure as drawn.
